How the values were obtained:
[1] = system: HepG2; assay: Tumor cell inhibition, CellTiter-Glo; conditions: Liver cancer, cultured for 72 h
[2] = system: HCC827; assay: Tumor cell inhibition, CellTiter-Glo; conditions: Lung cancer, cultured for 72 h
[3] = system: SNU-5; assay: Tumor cell inhibition, CellTiter-Glo; conditions: Gastric cancer, cultured for 72 h
[4] = system: Daudi; assay: Tumor cell inhibition, CellTiter-Glo; conditions: Leukemia, cultured for 72 h
[5] = system: LOVO; assay: Tumor cell inhibition, CellTiter-Glo; conditions: Colon cancer, cultured for 72 h
[6] = system: ZR-75-1; assay: Tumor cell inhibition, CellTiter-Glo; conditions: Breast ductal carcinoma, cultured for 72 h
[7] = system: Aβ release of stably-transformed APP (SW) HEK293 cells; assay: Aβ release, ELISA of supernatant

SMILES: [2H]c1c([2H])c([2H])c([As]=O)c([2H])c1[2H] (centres unmarked)
- IC50 [1]: 100 to 200 nM
- IC50 [2]: 180 nM
- IC50 [3]: 100 to 200 nM
- IC50 [4]: 59.3 nM
- IC50 [5]: 100 to 200 nM
- IC50 [6]: 50 to 100 nM

SMILES: [2H]c1ccc([As]=O)c([2H])c1 (centres unmarked)
- Aβ contents in cell culture supernatants vs. d5PAO 50 nM treatment group ([7]; 25 nM and 75 nM): significant differences
- extracellular Aβ contents ([7]; 25 nM, 50 nM and 75 nM, vs. control group): significantly increased

Source: patent publication US20240050395A1 (priority 2020, published 2024)
